Measured values published in patent publication US7582649B2, “Hydroxy alkyl substituted 1,3,8-triazaspiro[4.5]decan-4-one derivatives useful for the treatment of ORL-1 receptor mediated disorders” (Janssen Pharmaceutica, NV, priority 2002, dated 2009).

Amino acid sequences for entries named in this document (tags omitted).
UniProt P35372, whole entry: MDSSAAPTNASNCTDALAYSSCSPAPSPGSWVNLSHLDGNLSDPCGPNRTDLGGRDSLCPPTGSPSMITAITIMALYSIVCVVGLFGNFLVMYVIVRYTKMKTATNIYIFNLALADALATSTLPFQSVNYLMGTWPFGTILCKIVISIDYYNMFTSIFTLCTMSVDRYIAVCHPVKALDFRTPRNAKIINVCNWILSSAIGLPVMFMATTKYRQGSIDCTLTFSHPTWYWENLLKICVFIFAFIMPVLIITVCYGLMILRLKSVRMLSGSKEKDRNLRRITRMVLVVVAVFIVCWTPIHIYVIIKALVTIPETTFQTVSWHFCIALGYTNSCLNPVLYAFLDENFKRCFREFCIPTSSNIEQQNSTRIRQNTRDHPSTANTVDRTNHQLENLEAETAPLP
UniProt P41145, whole entry: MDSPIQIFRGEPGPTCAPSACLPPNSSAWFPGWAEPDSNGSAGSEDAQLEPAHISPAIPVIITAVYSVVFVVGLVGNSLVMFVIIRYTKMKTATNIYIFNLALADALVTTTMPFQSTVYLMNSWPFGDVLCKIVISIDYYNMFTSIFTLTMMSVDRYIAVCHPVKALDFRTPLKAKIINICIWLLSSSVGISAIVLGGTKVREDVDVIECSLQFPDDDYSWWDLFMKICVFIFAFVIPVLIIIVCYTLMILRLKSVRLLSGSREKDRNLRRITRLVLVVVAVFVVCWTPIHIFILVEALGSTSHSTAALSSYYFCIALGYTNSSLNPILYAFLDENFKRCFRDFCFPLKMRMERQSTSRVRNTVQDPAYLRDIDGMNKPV
UniProt P41143, whole entry: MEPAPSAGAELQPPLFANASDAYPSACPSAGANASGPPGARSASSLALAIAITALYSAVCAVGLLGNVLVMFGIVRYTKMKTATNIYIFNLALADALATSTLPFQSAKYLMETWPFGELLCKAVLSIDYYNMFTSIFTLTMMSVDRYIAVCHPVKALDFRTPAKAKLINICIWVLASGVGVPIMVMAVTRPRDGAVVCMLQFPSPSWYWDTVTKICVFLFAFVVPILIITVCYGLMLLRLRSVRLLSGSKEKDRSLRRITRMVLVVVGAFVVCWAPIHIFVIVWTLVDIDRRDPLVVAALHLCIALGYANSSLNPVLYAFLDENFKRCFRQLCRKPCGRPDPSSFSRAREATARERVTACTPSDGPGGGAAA

Columns and labels:
mu opioid receptor = mu opioid receptor (Homo sapiens, UniProt P35372); test: Filtration binding assay: mu opioid receptor
kappa opioid receptor = kappa opioid receptor (Homo sapiens, UniProt P41145); test: Filtration binding assay: kappa opioid receptor; details: read-out: Kappa Ki; value followed by notation Ki
delta opioid receptor = delta opioid receptor (Homo sapiens, UniProt P41143); test: Filtration binding assay: delta opioid receptor; details: read-out: Delta Ki; value followed by notation Ki

## Cc1cccc(SC[C@H](O)CN2CN(c3ccccc3)C3(CCN(CCc4ccccc4-c4cccs4)CC3)C2=O)c1
Mu opioid receptor; read-out: Mu IC50, mean where tested more than once
  IC50: 3 nM

## Cc1c(C(C)N2CCC3(CC2)C(=O)NCN3c2ccc(F)cc2)sc2ccccc12 (stereo not shown)
Mu opioid receptor; read-out: Mu Ki, value followed by notation Ki
  Ki: 3 nM
Kappa opioid receptor
  Ki: 10 nM
Delta opioid receptor
  Ki: 350 nM
